Measurements as given in patent US20250289807A1, “Inhibitors of ROCK2” (Graviton Bioscience BV, priority 2022, published 2025).

Protein sequences, listed by entry. Tags and fused reporters are not part of them. Lines headed by an entry give the natural chain unless they say otherwise; changes in a name come on top.
UniProt Q13464: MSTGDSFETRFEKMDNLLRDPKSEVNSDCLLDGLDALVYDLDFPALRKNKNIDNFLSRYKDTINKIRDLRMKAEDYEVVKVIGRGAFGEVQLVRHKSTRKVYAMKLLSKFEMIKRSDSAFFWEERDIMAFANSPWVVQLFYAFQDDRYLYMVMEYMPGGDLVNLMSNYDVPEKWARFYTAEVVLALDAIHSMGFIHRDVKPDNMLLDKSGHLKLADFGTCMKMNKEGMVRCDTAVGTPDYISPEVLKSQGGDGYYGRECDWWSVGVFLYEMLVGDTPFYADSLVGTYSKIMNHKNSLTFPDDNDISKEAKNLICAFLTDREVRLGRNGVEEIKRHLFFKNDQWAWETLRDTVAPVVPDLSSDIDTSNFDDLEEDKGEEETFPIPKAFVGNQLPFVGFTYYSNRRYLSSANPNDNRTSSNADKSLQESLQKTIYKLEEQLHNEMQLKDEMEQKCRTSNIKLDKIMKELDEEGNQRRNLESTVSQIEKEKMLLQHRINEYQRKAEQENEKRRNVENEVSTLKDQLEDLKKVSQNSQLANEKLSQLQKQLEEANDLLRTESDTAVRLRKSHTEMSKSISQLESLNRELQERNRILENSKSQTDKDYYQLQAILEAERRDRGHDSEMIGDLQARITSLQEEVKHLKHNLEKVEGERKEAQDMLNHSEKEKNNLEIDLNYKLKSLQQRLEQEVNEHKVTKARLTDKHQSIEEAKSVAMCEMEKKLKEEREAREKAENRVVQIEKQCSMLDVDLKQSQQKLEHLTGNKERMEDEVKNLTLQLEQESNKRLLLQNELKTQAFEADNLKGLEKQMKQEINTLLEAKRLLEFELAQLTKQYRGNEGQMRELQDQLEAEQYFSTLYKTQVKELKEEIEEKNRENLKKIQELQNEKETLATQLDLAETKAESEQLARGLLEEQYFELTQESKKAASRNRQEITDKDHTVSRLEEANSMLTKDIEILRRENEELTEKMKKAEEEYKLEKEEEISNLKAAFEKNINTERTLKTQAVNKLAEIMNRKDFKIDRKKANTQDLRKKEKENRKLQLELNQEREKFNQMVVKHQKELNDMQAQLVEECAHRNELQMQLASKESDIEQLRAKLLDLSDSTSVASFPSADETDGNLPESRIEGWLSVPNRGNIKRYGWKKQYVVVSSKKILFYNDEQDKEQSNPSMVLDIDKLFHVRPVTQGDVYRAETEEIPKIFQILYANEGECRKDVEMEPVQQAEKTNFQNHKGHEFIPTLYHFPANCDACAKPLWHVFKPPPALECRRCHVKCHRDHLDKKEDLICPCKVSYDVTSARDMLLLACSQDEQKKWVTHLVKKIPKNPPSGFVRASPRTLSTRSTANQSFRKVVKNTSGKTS

Target: ROCK1 (Homo sapiens (Human), UniProt Q13464)
Assay: ADP-Glo kinase assay, ROCK1
Format: biochemical
Conditions: 10 μM ATP, 170 μM S6K substrate, 120 min
Procedure: ADP-Glo kinase assay (Promega). The ADP-Glo™ Kinase Assay is a luminescent ADP detection assay that allows measurement of kinase activity based on the amount of ADP produced during a kinase reaction. The kinase reaction is performed in the presence of ATP, S6K substrate ([…]) and the ROCK kinase in the appropriate Kinase Reaction Buffer (1×). Upon termination of the reaction, the unconsumed ATP is depleted by addition of ADP-Glo™ Reagent. Next, Kinase Detection Reagent is added to convert ADP to ATP and allow the newly synthesized ATP to be measured using a luciferase/luciferin reaction. The luminescence is proportional to the produced ADP and consequently to the kinase activity. The ADP-Glo™ Kinase Assay was performed in a 384 well plate format as follows.
Kinase Detection Reagent Preparation: The Kinase Detection Buffer was thawed at room temperature (RT). If a precipitate was present, the buffer was incubated at 37° C. with constant swirling for 15 minutes to dissolve the precipitate or the precipitate was removed from the buffer by carefully pipetting the supernatant from the bottle. After equilibrating both the Kinase Detection Buffer and Kinase Detection Substrate to room temperature, the entire volume of Kinase Detection Buffer was transferred into the bottle containing Kinase Detection Substrate to reconstitute the lyophilized substrate, followed by gentile mixing to obtain a homogeneous solution.
Kinase Reaction Buffer Preparation: Kinase reaction buffer was prepared freshly before each experiment.
ADP-Glo Reagents Preparation. Three mixes were prepared on ice before running the assay: • Mix 1—containing ROCK1 or ROCK2 in Kinase Reaction Buffer (1×) • Mix 2—containing S6K peptide in Kinase Reaction Buffer (1×) • Mix 3—containing ATP in Kinase Reaction Buffer (1×)
The ratios of reagent volumes in the assay were 1:1:2 of kinase reaction to ADP-Glo™ Reagent to Kinase Detection Reagent. For 384-well plates, volumes were: 5 μl of kinase reaction, 5 μl of ADP-Glo™ Reagent and 10 μl of Kinase Detection Reagent.
Generating a standard curve for conversion of ATP to ADP. To estimate the amount of ADP produced in the kinase reaction, a standard curve that represents the luminescence corresponding to the conversion of ATP to ADP was prepared based on the ATP concentration used in the kinase reaction. These conversion curves represent the amounts of ATP and ADP available in a reaction at the specified conversion percentage ranging from 100% conversion to 0% conversion. The standard samples used to generate an ATP-to-ADP conversion curve are created by combining the appropriate volumes of ATP and ADP stock solutions.
Each plate contained a positive control (1 μM Comp. A for ROCK2 and 1 μM RKI-1447 for ROCK1); a vehicle control (1% DMSO); a blank control (kinase reaction buffer (1×)); a low control (substrate and ATP, without kinase); and an autophosphorylation control (kinase and ATP, without substrate). Test and reference compounds were diluted in 100% DMSO to obtain 10 mM stock solutions. Each compound was tested in 8-serial dilutions in duplicate. The final concentration of DMSO in the reaction was 1% (up to 50 nL).
5 μl/well Kinase Reaction Buffer (1×) was dispensed to blank control wells. 2 μl/well Kinase Reaction Buffer (1×) was dispensed to control without protein (low control) and without substrate (autophosphorylation) wells. The plate was sealed with adhesive film followed by a short spin (1 min, 1000 rpm).
2 μl/well kinase (2.5×) solution was dispensed into relevant wells of the assay plate. The plate was sealed with adhesive film followed by a short spin (1 min, 1000 rpm).
The plate was sealed with adhesive film followed by a short spin (1 min, 1000 rpm).
1 μl/well ATP (5×) solution was dispensed into relevant wells of the assay plate. The final volume of reaction was […]. The plate was sealed with adhesive film followed by a short spin (1 min, 1000 rpm). […]

SMILES | IC50 [µM]
CN(C)CCn1c(C(=O)N2CC(F)(F)C2)cc2ccc(-c3nccc(Nc4ccc(-c5ccn[nH]5)cc4)n3)cc21 [Example 5] | > 50
O=C(c1cc2ccc(-c3nccc(Nc4ccc(-c5ccn[nH]5)cc4)n3)cc2n1CC1COC1)N1CC(F)(F)C1 [Example 6] | 1.99
O=C(c1cc2ccc(-c3nccc(Nc4ccc(-c5cnc[nH]5)cc4)n3)cc2n1CC1COC1)N1CCC(F)(F)C1 [Example 11] | 3.68
O=C(c1cc2ccc(-c3nccc(Nc4ccc(-c5ccn[nH]5)cc4)n3)cc2o1)N1CC(F)(F)C1 [Example 14] | 4.71
Cn1c(C(=O)N2CCC(F)(F)C2)cc2ccc(-c3nccc(Nc4ccc(-c5cn[nH]n5)cc4)n3)cc21 [Example 17] | 0.437
O=C(c1cc2ccc(-c3nccc(Nc4ccc(-c5ccn[nH]5)cc4)n3)cc2s1)N1CC(F)(F)C1 [Example 20] | 23.3
O=C(c1nc2ccc(-c3nccc(Nc4ccc(-c5ccn[nH]5)cc4)n3)cc2[nH]1)N1CC(F)(F)C1 [Example 21] | 7.78
